Test results as given in PMC5704011.

Experiments:
PDGFRβ (Homo sapiens) [1] = target: PDGFRβ (Homo sapiens) (UniProt P09619); conditions: cited from earlier work
PDGFRβ (Homo sapiens) [2] = target: PDGFRβ (Homo sapiens) (UniProt P09619); test: SPR; BIAcore 3000, 25 °C, CM5 chip; receptor immobilised by amine coupling (~200-500 R.U.); ligand injected at 40, 20 and 10 nM in HBS-EP pH 7.4 (10 mM HEPES, 3 mM EDTA, 150 mM NaCl, 0.005% TWEEN-20); angiopoietin-4 reference cell subtracted; global 1:1 Langmuir fit; χ^2-to-Rmax < 1.0 taken as a true interaction

Substance	Kd (PDGFRβ (Homo sapiens) [1]) [nM]	Kd (PDGFRβ (Homo sapiens) [2]) [nM]
PDGF-BB (from UniProt P01127)	1.6	
human recombinant PDGF-DD (from UniProt Q9GZP0 19-370) (ligand)		67

Where two headings read alike, the source gives them in different places.
